Protein sequences, listed by entry. Tags and fused reporters are not part of them. Lines headed by an entry give the natural chain unless they say otherwise; changes in a name come on top.
UniProt Q6B856: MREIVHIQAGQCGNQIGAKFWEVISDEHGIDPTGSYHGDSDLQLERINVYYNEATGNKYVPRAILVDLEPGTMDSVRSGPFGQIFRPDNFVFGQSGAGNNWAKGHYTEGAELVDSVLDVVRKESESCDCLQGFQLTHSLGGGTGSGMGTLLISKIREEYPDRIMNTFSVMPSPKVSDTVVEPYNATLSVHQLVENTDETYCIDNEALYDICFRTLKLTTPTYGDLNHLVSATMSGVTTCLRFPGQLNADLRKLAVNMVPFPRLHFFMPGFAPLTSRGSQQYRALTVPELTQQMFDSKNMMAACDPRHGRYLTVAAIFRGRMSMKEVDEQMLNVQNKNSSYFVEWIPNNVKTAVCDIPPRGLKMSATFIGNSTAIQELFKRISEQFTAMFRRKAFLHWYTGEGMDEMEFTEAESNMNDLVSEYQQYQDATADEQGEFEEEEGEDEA

In PMC4919914:

Legend:
[1] = molecular target: depolymerized bovine tubulin (bovine) (UniProt Q6B856); assay: ELISA; depolymerized bovine tubulin adsorbed in the solid phase, T40 or T40P in the aqueous phase, tau binding detected with mAb 27/499
[2] = molecular target: Neonatal rat tau (NT): endogenously phosphorylated neonatal rat 3-repeat tau (rat); assay: ELISA; tau (dGA, NT or NTP) adsorbed on poly(vinyl chloride) 96-well plates in 50 mM carbonate buffer, 37 °C 1 h; aqueous-phase T40 or T40P in 1% gelatin in PBST, 1 h 37 °C; bound tau detected with mAb 27/499; Langmuir fits; asymptotic constants with the species of the other phase non-limiting
[3] = molecular target: Hyperphosphorylated rat tau (NTP): rat NT hyperphosphorylated in vitro (rat); assay: as above

Kd [1] [µM]	Kd [2] [µM]	Kd,Adsorbed [2] [µM]	N1 (estimate of Kd,Aqueous) [2] [µM]	N2 (estimate of Kd,Adsorbed) [2] [µM]	Q1 (estimate of Kd,Adsorbed) [2] [µM]	Q2 (estimate of Kd,Aqueous) [2] [µM]	Kd [3] [µM]	Kd,Adsorbed [3] [µM]	N1 (estimate of Kd,Aqueous) [3] [µM]	Q1 (estimate of Kd,Adsorbed) [3] [µM]	Q2 (estimate of Kd,Aqueous) [3] [µM]	N2 (estimate of Kd,Adsorbed) [3] [µM]	Substance
0.403	0.0208	0.0081	0.0188	0.0086	0.0076	0.0228	0.756	0.0105	0.754	0.0188	0.759	–	Full-length, non-phosphorylated recombinant human 2N4R tau (T40) (from UniProt P10636-8 1-441) (natural protein)
–	0.505	0.0315	0.627	0.0391	0.0238	0.382	1.07	0.1	0.969	0.115	1.16	0.086	Hyperphosphorylated tau (T40P): T40 tau hyperphosphorylated in vitro (from UniProt P10636-8 1-441) (natural protein)
9.58	–	–	–	–	–	–	–	–	–	–	–	–	Hyperphosphorylated tau (T40P): T40 tau hyperphosphorylated in vitro (from UniProt P10636-8 1-441) (natural protein; hyperphosphorylated in vitro by rat brain extract; the complete extent of phosphorylation of the many potential sites was not characterized)
